This is a selection; strong and weak results do not stand in their true shares. The source made the active and inactive calls. Calls follow the shape of the dose curve; as a rule, active = well fitted activation curve with a large enough effect; inconclusive = small, poorly fitted or top-dose-only effect; inactive = no such curve, though single readings can be large or run the other way.

Protein sequences, listed by entry. Tags and fused reporters are not part of them.
UniProt O95398, whole entry: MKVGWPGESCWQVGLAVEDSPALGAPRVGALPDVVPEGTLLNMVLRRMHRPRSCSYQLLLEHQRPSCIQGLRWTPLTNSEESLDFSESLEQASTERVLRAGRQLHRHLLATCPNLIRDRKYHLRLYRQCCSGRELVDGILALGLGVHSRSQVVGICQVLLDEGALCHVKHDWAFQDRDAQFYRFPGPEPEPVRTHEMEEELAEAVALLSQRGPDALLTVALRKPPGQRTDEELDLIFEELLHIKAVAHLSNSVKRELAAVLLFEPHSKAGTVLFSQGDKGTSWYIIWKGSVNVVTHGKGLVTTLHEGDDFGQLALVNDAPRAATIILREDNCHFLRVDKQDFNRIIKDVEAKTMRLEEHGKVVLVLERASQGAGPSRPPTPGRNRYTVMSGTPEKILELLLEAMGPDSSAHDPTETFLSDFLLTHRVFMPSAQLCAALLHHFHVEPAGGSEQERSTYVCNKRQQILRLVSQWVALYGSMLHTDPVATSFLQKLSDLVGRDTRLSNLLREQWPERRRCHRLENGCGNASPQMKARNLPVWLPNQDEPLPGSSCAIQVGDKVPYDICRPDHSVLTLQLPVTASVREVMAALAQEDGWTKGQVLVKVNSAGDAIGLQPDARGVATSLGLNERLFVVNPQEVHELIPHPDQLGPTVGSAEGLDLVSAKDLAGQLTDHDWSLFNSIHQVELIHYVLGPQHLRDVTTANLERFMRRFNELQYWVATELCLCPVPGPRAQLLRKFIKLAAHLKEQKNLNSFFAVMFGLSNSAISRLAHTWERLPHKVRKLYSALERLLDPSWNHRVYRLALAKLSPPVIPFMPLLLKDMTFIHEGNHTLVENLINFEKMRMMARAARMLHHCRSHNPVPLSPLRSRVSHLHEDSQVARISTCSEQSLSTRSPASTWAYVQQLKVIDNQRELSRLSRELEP

The target in the assay is Rap guanine nucleotide exchange factor 3 (Homo sapiens) (UniProt O95398). Briefly: qHTS for Agonist of cAMP-regulated guanine nucleotide exchange factor 3 (EPAC1): primary screen. Also: nearly all actives have a fitted effect of over 60% in size. Particulars: biochemical assay; at 154 µM (top of the series), 100% = response to 6.5 mM cAMP unless noted. The text has this:
In multi-cellular eukaryotic organisms, the effects of cAMP are transduced by two ubiquitously-expressed intracellular cAMP receptors, the classic protein kinase A/cAMP-dependent protein kinase (PKA/cAPK) and the more recently discovered exchange protein directly activated by cAMP/cAMP-regulated guanine nucleotide exchange factor (EPAC/cAMP-GEF). Both PKA and EPAC are ubiquitously expressed in all tissues, and an increase in intracellular cAMP levels will lead to the activation of both PKA and EPAC. Therefore, careful dissections of the individual role and relative contribution of EPAC and PKA within the overall cAMP signaling in various model systems are critical for further elucidating the mechanism of cAMP signaling. To date no EPAC-specific antagonists and agonist, as well as isoform-specific agonists have been reported, and developing EPAC-specific pharmacological probes to determine the physiological functions that EPAC play in the overall cAMP-mediated signaling remains a major challenge within the research field. Furthermore, identified regulators of EPAC may lead to new mechanism-based therapeutic strategies specifically targeting the EPAC / cAMP-signaling components as EPAC has been implicated to play important roles in major human pathological conditions such as diabetes, heart disease, and cancer.
This qHTS will be used to screen the Molecular Libraries Small Molecule Repository (MLSMR) as a concentration-titration series using the NCGC unique quantitative screening (qHTS) platform to find activators for EPAC1. In addition, this assay will also be used as a counterscreen for the EPAC2 qHTS. This fluorescent based assay is developed and validated for EPAC1 that measures exchange using EPAC effector Rap1 complex with BODIPY-GDP, a GDP analog with a tethered fluorophores. Activators are identified by monitoring the change in fluorescence signal as the exchanged free BODIPY-GDP has a reduced fluorescence compared to Rap1-bound BODIPY-GDP. Increase in signal (activation) is the desired outcome for the EPAC1 agonist while no activity in this assay is desired for the EPAC2 agonist counterscreen.
[1] de Rooij, J., Zwartkruis, F. J., Verheijen, M. H., Cool, R. H., Nijman, S. M., Wittinghofer, A., and Bos, J.L. (1998) Nature 396, 474-477
NIH Chemical Genomics Center [NCGC]
NIH Molecular Libraries Probe Centers Network [MLPCN]
Assay Submitter (PI): Xiaodong Cheng, The University of Texas Medical Branch
Briefly, three uL of reagents (100 nM EPAC1, 250 nM RAP1B-BODIPY-GDP, 50 uM GDP) were dispensed into a 1536-well Greiner black solid-bottom medium binding assay plate. Controls and test compounds (23 nL) were transferred to the plate via a Kalypsys pin tool equipped with a 1536-pin array. The plates were centrifuged at 1,000 rpm for 15 seconds followed by 5 minute incubation at room temperature. The assay plates were read at 5 minute intervals for 30 minutes in the ViewLux plate reader using 480nm excitation and 540nm emission filters. The results were normalized to the agonist positive control of 6.5 mM cAMP.
Background: Quantitative high-throughput screening tests each substance at several concentrations.
Turning to `CCC(c1nnnn1C1CCCC1)N1CCC(n2c(=O)[nH]c3ccccc32)CC1` (centres undefined), the activation is inactive: -6.3%.
To `COc1ccc(C(=O)NCC2(N3CCCCC3)CCCCC2)c(OC)c1OC` belongs inactive: -3.27%.
As to `CC(C)(C)OC(=O)N1CCC(N(C(=O)c2ccccc2)c2ccc(F)cc2)CC1`, the activation is inactive: 1.59%.
On to `COc1ccc(C(=O)NCC2(N3CCCCC3)CCCCC2)cc1`, for which the activation was inactive: -0.522%.
Turning to `CCCCn1nnnc1C(c1cccs1)N1CCC(n2c(=O)[nH]c3ccccc32)CC1` (centres undefined), the activation is inactive: -7.31%.
To `CCCCn1nnnc1C(CC)N1CCC(n2c(=O)[nH]c3ccccc32)CC1` (centres undefined) belongs inactive: -0.766%.
For `O=C(NCC1(N2CCCCC2)CCCCC1)c1cccs1` the value was inactive: -27.7%.
For `O=C(NCC1(N2CCCCC2)CCCCC1)c1ccc(=O)[nH]c1` the value was inactive: -0.575%.
For `Cc1cccc(NC2(C#N)CCN(Cc3ccccc3)CC2)c1`, the activation was inactive: 0.377%.
For `CSc1ccccc1C(=O)NCC1(N2CCCCC2)CCCCC1` the value was inactive: 10.3%.
As for `Cc1cc(C)cc(N(C(=O)c2ccccc2)C2CCN(C(=O)OC(C)(C)C)CC2)c1`, the activation is inactive: 1.15%.
For `O=c1[nH]c2ccccc2n1C1CCN(C(c2ccccc2OC(F)(F)F)c2nnnn2C2CCCCC2)CC1` (centres undefined) the value was inactive: 0.471%; for `O=C(NCC1(N2CCCCC2)CCCCC1)c1ccc(Cl)nc1`, inactive: -13.6%; for `O=C(NCC1(N2CCOCC2)CCCCC1)c1cc2ccccc2o1`, inactive: 4.42%.
For `O=C1C(O)=C([N+](=O)[O-])C(=O)C(O)=C1[N+](=O)[O-]` the value was inactive: 0.141%.
To `COc1ccc(Cl)cc1C(=O)NCC1(N2CCOCC2)CCCCC1` belongs inactive: 1.69%; to `O=c1[nH]c2ccccc2n1C1CCN(C(c2cc3ccccc3o2)c2nnnn2C2CCCCC2)CC1` (centres undefined), inactive: -9.01%.
For the compound `O=C(OC1CN2CCC1CC2)C1c2ccccc2Oc2ccccc21` (centres undefined), the activation is inactive: -6.41%.
To `O=C(NCC1(N2CCCCC2)CCCCC1)c1ccc(Cl)s1` belongs inactive: -0.0415%; to `N#CC1(Nc2ccccc2)CCN(Cc2ccccc2)CC1`, inactive: 1.18%; to `CCCCn1nnnc1C(c1ccc(OC)cc1)N1CCC(n2c(=O)[nH]c3ccccc32)CC1` (centres undefined), inactive: -4.4%.
Turning to `CCOC(=O)N1CCC(Nc2ccc(OC)cc2)CC1`, the activation was inactive: 8.86%.
To `O=C1CCN(Cc2ccccc2)CC1` belongs inactive: -17.1%; to `CC(C)(C)n1nnnc1C(c1ccccc1)N1CCC(n2c(=O)[nH]c3ccccc32)CC1` (centres undefined), inactive: -4.37%.
To `CCOc1ccc(C)cc1CN(CCCl)CCCl` belongs inactive: -1.16%; to `CCOC(=O)N1CCC(Nc2ccc(F)cc2)CC1`, inactive: 9.93%.
Take `COc1ccc(NC2CCN(CCc3ccccc3)CC2)c(OC)c1`: the activation is inactive: 3.13%.
To `O=C(NCC1(N2CCCCC2)CCCCC1)c1ccc(F)cc1` belongs inactive: 8.98%; to `CCCCOc1ccc(C(=O)NCC2(N3CCOCC3)CCCCC2)cc1`, inactive: -0.35%.
As for `CCCCn1nnnc1C(c1cc2ccccc2o1)N1CCC(n2c(=O)[nH]c3ccccc32)CC1` (centres undefined), the activation is inactive: -7.09%.
For `O=P1(N(CCCl)CCCl)SCCCS1` the value was inactive: 12.5%; for `O=c1[nH]c2ccccc2n1C1CCN(C(c2ccccc2)c2nnnn2C2CCCCC2)CC1` (centres undefined), inactive: 3.21%; for `COc1cc(C(=O)NCC2(N(C)C)CCCCC2)ccc1OC(F)F`, inactive: -1.05%.
For `CCOC(=O)N1CCC(Nc2cccc(C)c2)CC1` the value was inactive: 2.7%; for `O=c1[nH]c2ccccc2n1C1CCN(C(c2cccc3ccccc23)c2nnnn2C2CCCC2)CC1` (centres undefined), inactive: -2.71%.
To `O=C(NCC1(N2CCCCC2)CCCCC1)c1ccc(OC(F)F)cc1` belongs inactive: 1.99%; to `CC(C)(C)n1nnnc1C(c1ccccc1OC(F)(F)F)N1CCC(n2c(=O)[nH]c3ccccc32)CC1` (centres undefined), inactive: -7.97%.
Regarding `N#CC1(Nc2ccccc2)CCN(CCc2ccccc2)CC1`, the activation is inactive: -0.262%.
To `O=c1[nH]c2ccccc2n1C1CCN(C(c2ccccc2OC(F)(F)F)c2nnnn2C2CCCC2)CC1` (centres undefined) belongs inactive: -18.4%; to `CCN1CCC(Nc2ccc(Cl)cc2)CC1`, inactive: 11.1%; to `O=C(NCC1(N2CCCCC2)CCCCC1)c1cccc([N+](=O)[O-])c1`, inactive: -7.62%.
For `CSc1ccc(C(=O)NCC2(N3CCOCC3)CCCCC2)cc1` the value was inactive: 2.79%; for `O=[N+]([O-])c1cc([N+](=O)[O-])c(NCC2CCS(=O)(=O)C2)c([N+](=O)[O-])c1` (centres undefined), inactive: 0.0402%.
To `O=C(NCC1(N2CCCCC2)CCCCC1)c1cccc(C(F)(F)F)c1` belongs inactive: 6.46%.

The values above are taken from PubChem BioAssay AID720707 (National Center for Advancing Translational Sciences (NCATS), 2013).
